B1: G/T mismatch-specific thymine DNA glycosylase (Homo sapiens), Q13569 (parent)
chain: MEAENAGSYSLQQAQAFYTFPFQQLMAEAPNMAVVNEQQMPEEVPAPAPAQEPVQEAPKGRKRKPRTTEPKQPVEPKKPVESKKSGKSAKSKEKQEKITDTFKVKRKVDRFNGVSEAELLTKTLPDILTFNLDIVIIGINPGLMAAYKGHHYPGPGNHFWKCLFMSGLSEVQLNHMDDHTLPGKYGIGFTNMVERTTPGSKDLSSKEFREGGRILVQKLQKYQPRIAVFNGKCIYEIFSKEVFGVKVKNLEFGLQPHKIPDTETLCYVMPSSSARCAQFPRAQDKVHYYIKLKDLRDQLKGIERNMDVQEVQYTFDLQLAQEDAKKMAVKEEKYDPGYEAAYGGAYGENPCSSEPCGFSSNGLIESVELRGESAFSGIPNGQWMTQSFTDQIPSFSNHCGTQEQEEESHA

In the assay the parent is B1. To be noted: with sumo2_human SUMO2.
Turning to V308A, the “effect of a mutation on the interaction” value is on record as “disrupting interaction strength”.

Regarding E310Q, the “effect of a mutation on the interaction” value is on record as “disrupting interaction strength”. For R281A the value was “disrupting interaction strength”; for L319G, “with no effect”; for F315A, “disrupting interaction strength”.

Consider D307A, for which the “effect of a mutation on the interaction” value is recorded as “disrupting interaction strength”. As for Y313A, the entry is “disrupting interaction strength”. As for V311A, the entry is “decreasing interaction strength”; as for D323A, “with no effect”. As for Q309A, the entry is “with no effect”.

Values taken from IntAct's records for PubMed 16626738.
